## Yeast mating assay 1: variants of the scFv Ab-14

Binding partner: SARS-CoV-2 spike HR2 peptide, sequence PDVDLGDISGINAS.

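Library AAYL50 holds single substitutions and randomly drawn double and triple substitutions in the CDRs. The scFvs were displayed on barcoded MATa yeast, the peptide on MATalpha yeast. The frequency of each diploid, read from paired DNA barcodes, reflects how well the two displayed proteins bind. Each replicate has its own calibration line, from reference interactions of the BCL2 family. Each pool was mated in three replicate cultures.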

Parent: Ab-14, a human scFv built as VH, a (GGGGS)3 linker, VL. Only the CDRs of the light chain vary.
VH: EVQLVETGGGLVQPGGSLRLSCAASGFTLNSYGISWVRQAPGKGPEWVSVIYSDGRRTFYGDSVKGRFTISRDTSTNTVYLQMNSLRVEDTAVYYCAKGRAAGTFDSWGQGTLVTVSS
VL: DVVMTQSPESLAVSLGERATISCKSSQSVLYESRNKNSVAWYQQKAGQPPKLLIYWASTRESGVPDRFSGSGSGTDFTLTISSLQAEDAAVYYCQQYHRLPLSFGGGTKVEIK

The parent's light chain CDRs are KSSQSVLYESRNKNSVA, WASTRES, QQYHRLPLS; each variant's own CDRs replace them letter for letter.
This list gathers variants with a substitution at Y97 (VL, numbered from residue 1).
Values are log10 of the apparent Kd in nM; lower means stronger binding.
A mean of the replicates is given; it leaves out those without a signal.
An entry "ND" has no value in the source: the pair was not observed among the diploids in that replicate. This suggests poor binding but is not conclusive.

- KSSQSVLYESRNKHSVA / WASTRES / QQEHRLPLS: 1.79, 1.47, 1.29 (mean 1.52; controls 1 of 9)
- KSSQSVLYESRNKNSTA / WASTYES / QQIHRLPLS: ND, 4.21, ND (controls 0 of 9)
- KSSQSVLYESRNKNSVA / WMSTRES / QEAHRLPLS: ND, ND, ND (controls 0 of 9)
- KSSQSVLYESRNKNAVA / WASTRES / QQAHRLPLT: 2.46, 2.14, 3.23 (mean 2.61; controls 2 of 9)
- KSSQSVLYESGNKNSVA / WASTRES / QQVPRLPLS: ND, ND, ND (controls 0 of 9)
- KSSQSVLYVSRNKNSWA / WASTRES / QQHHRLPLS: ND, ND, ND (controls 0 of 9)
- KSSQSLLYESRPKNSVA / WASTRES / QQMHRLPLS: 5.00, 3.72, ND (mean 4.36; controls 1 of 9)
- KSSQPVAYESRNKNSVA / WASTRES / QQNHRLPLS: 0.96, 1.11, 1.05 (mean 1.04; controls 1 of 9)
- VSSQDVLYESRNKNSVA / WASTRES / QQSHRLPLS: 3.90, 2.77, 4.19 (mean 3.62; controls 0 of 9)
- KSSQSVLAESRNKNSVA / WASTRES / QQGHRLQLS: 0.32, 0.68, 0.39 (mean 0.46; controls 0 of 9)
- KSSQSVLYESRNKESVA / WASTRES / QQNHRLPPS: 2.75, 1.92, 2.07 (mean 2.25; controls 0 of 9)
- KSSQSVLYESRNLNSVA / WASTRES / QQCHRLPHS: ND, 2.47, ND (controls 0 of 9)
- KSSQSVLYESRNKNSVA / WASTAES / QQKHRQPLS: ND, 4.73, ND (controls 0 of 9)
- KSSQSVLYESRNKNSVR / WASTMES / QQTHRLPLS: ND, ND, ND (controls 2 of 9)
- KSSQSVLYESRNKNSVA / WASTRES / QQCHVLTLS: 0.67, 1.07, 1.13 (mean 0.96; controls 1 of 9)
- KSSQSVLFESRMKNSVA / WASTRES / QQTHRLPLS: 6.54, 3.70, 6.41 (mean 5.55; controls 6 of 9)
- KSSQNVLYESNNKNSVA / WASTRES / QQMHRLPLS: 2.72, 3.05, 2.86 (mean 2.88; controls 2 of 9)
- KSSQSVLYESRNKNSVA / WASTRES / QQDGRLPKS: 0.52, 1.07, 1.29 (mean 0.96; controls 0 of 9)
- KSSQSVLYESRNKNSVA / WNSTRES / QQKHRLPLS: ND, ND, ND (controls 0 of 9)
- KSSQSVLYTSRNKNSVA / WASTRES / QQPHRLPLC: 4.76, 4.00, ND (mean 4.38; controls 3 of 9)
- KSSQSVLYELRNKNSVA / WASTRES / QQHHRLPLS: 4.11, ND, 2.98 (mean 3.54; controls 0 of 9)
- KSSQSVYYESFNKNSVA / WASTRES / QQLHRLPLS: ND, ND, ND (controls 0 of 9)
- KSSQSVLYESNNKNSVA / WASTRES / QQEVRLPLS: ND, ND, ND (controls 0 of 9)
- KSSQSVLYESRNKNSVA / WASTRES / RQDHRYPLS: 1.39, 1.49, 1.56 (mean 1.48; controls 6 of 9)
- KSSQSVLYESRNKNSVQ / WASTRES / QQCHRLPLT: ND, ND, ND (controls 0 of 9)
- PSSQDVLYESRNKNSVA / WASTRES / QQIHRLPLS: ND, ND, ND (controls 0 of 9)
- KSSQSMLYESRNKNDVA / WASTRES / QQWHRLPLS: ND, 4.42, 5.11 (mean 4.76; controls 6 of 9)
- KSSQSVLYESRNFNSVA / DASTRES / QQSHRLPLS: ND, 1.96, ND (controls 0 of 9)
- ISSQSVLYESRNKNSVA / WASTRES / QQPHRLCLS: 1.48, 1.85, 2.08 (mean 1.80; controls 0 of 9)
- KSSQSVLYFSRNKNSVA / WASTEES / QQFHRLPLS: ND, ND, ND (controls 2 of 9)
- KSSQSVLYESRGKNSVA / WASTDES / QQSHRLPLS: ND, ND, ND (controls 3 of 9)
- KSSQSVLYESRNKNSVA / VASTRES / IQTHRLPLS: 4.21, 3.48, 3.85 (mean 3.85; controls 2 of 9)
- KESQSVLYESRNKNSVA / WASTRES / QNNHRLPLS: 3.17, 2.89, 4.13 (mean 3.40; controls 4 of 9)
- KSSQSVLYESRNKNSVA / VASTRES / KQCHRLPLS: ND, ND, ND (controls 1 of 9)

Top 5 of the variants detected in all replicates, tightest first:

| CDR-L1 | CDR-L2 | CDR-L3 | log10 Kd (nM) by replicate | mean log10 Kd (nM) | signal with controls |
|---|---|---|---|---|---|
| KSSQSVLAESRNKNSVA | WASTRES | QQGHRLQLS | 0.32, 0.68, 0.39 | 0.46 | 0 of 9 |
| KSSQSVLYESRNKNSVA | WASTRES | QQCHVLTLS | 0.67, 1.07, 1.13 | 0.96 | 1 of 9 |
| KSSQSVLYESRNKNSVA | WASTRES | QQDGRLPKS | 0.52, 1.07, 1.29 | 0.96 | 0 of 9 |
| KSSQPVAYESRNKNSVA | WASTRES | QQNHRLPLS | 0.96, 1.11, 1.05 | 1.04 | 1 of 9 |
| KSSQSVLYESRNKNSVA | WASTRES | RQDHRYPLS | 1.39, 1.49, 1.56 | 1.48 | 6 of 9 |

For reference, the parent read 0.65 as the reference entry and 1.68 as a member of this library.
Background: pairings of library AAYL50 with three empty control strains gave a value in 18% of cases (median 4.19, 5th percentile 2.99). Values in that range, when seen in few replicates, are hard to tell from nonspecific mating. Also given: how often the same scFv was detected with the empty control strains.

Source: Engelhart et al. 2022 (doi:10.1038/s41597-022-01779-4), MIT Lincoln Laboratory and A-Alpha Bio; data file from the FLAb repository.